The entries are a selection whose mix differs from that of the whole data set. The source made the active and inactive calls. Cut-off read from the data, not from the text of the source: active = inhibition above about 30%; inactive = the rest.
Molecular target: Ubiquitin carboxyl-terminal hydrolase 17-like protein 5 (Homo sapiens) (UniProt A8MUK1)
Experiment: blocks human USP17 ubiquitin-rhodamine cleavage (AID 1645855)
Conditions: purified USP17, Ub-rhodamine cleavage fluorescence, 3 h; at 50 µM; hits give high values

By UniProt entry, the sequences of proteins in these tests, tags left out. Where a name states a change or a piece, a line headed by the entry shows the natural chain unless it says otherwise.
UniProt A8MUK1: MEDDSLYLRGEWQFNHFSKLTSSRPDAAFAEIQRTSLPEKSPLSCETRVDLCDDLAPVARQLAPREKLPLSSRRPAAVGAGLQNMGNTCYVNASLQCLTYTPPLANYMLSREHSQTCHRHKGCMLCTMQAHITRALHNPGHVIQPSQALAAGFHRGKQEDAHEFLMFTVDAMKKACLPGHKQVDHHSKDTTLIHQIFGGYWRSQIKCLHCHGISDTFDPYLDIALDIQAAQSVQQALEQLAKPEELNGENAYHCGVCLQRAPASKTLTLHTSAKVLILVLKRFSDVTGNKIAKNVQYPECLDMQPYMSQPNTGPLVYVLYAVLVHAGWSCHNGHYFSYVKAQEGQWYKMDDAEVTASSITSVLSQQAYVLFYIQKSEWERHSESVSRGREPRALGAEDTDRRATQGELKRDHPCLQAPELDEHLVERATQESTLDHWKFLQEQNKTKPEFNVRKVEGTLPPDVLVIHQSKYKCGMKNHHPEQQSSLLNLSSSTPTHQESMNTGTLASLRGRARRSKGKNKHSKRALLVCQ

Row | SMILES | inhibition
1 | CS(=O)(=O)c1ccc(C(=O)N(Cc2ccco2)C2CCN(CCc3ccccn3)CC2)cc1 | inactive: -36.9%
2 | N#Cc1cccc(C(=O)N(Cc2cccnc2)C2CCN(CCc3ccccn3)CC2)c1 | inactive: -25.1%
3 | CS(=O)(=O)c1ccc(C(=O)N(Cc2cccnc2)C2CCN(CCc3ccc(Cl)cc3)CC2)cc1 | inactive: -64.4%
4 | COc1ccc(CCN2CCC(N(Cc3ccco3)C(=O)c3ccc(S(C)(=O)=O)cc3)CC2)cc1 | inactive: -26.2%
5 | N#Cc1cccc(C(=O)N(Cc2ccco2)C2CCN(CCc3ccccn3)CC2)c1 | inactive: 4.69%
6 | CN1C(=O)C2C(NC(=NCc3ccco3)N2CCc2ccccc2)N(C)C1=O (stereo unspecified) | inactive: -5.83%
7 | N#Cc1cccc(C(=O)N(Cc2ccco2)C2CCN(CCc3ccc(Cl)cc3)CC2)c1 | inactive: -23.4%
8 | Cc1[nH]c2c(N(C(=O)Nc3ccccc3)C3CCN(Cc4ccccc4)CC3)cccc2c1C | inactive: -24%
9 | COc1ccc(CCN2CCC(N(Cc3cccnc3)C(=O)c3cccc(C#N)c3)CC2)cc1 | inactive: -33.7%
10 | O=C(c1ccc2c(c1)OCO2)N(Cc1ccco1)C1CCN(CCc2ccccn2)CC1 | inactive: -9.71%
11 | O=C(COC(=O)C(O)(c1ccccc1)c1ccccc1)NCc1ccc2c(c1)OCO2 | inactive: -24.1%
